Source: patent US9566342B2, “Compounds for treatment of heart failure” (SOLVOTRIN INNOVATIONS LIMITED, priority 2010, dated 2017)
This is a selection: effects in other tests are not listed, and their absence says nothing.

System: MMP-9
Assay: PMA-stimulated CaCo2 cells, zymography of media, MMP-9
Format: cell-based
Settings: equimolar to the Mannich base dinitrate, 450 uM nitro amine (FIG. 1)

**Q.** How did the “inhibition of MMP-9 relative to PMA positive control” value turn out when `O=[N+]([O-])OCCNCCO[N+](=O)[O-]` was run?
**A.** The value was “over 50%”.
